Patent publication US7056954B2, “Means for the modulation of processes mediated by retinoid receptors and compounds useful therefor” (The Salk Institute for Biological Studies, priority 1991, dated 2006)

How the values were obtained:
Rhino mouse = assay: Topical application, horn-filled utriculus size in the Rhino mouse; format: in vivo; settings: 14 days; for Pilosebaceous structure size: vehicle control 178 μm
F9 cells = assay: F9 cell differentiation, tissue plasminogen activator activity; format: cell-based, mouse; settings: concentration of 1 μM

Structure (SMILES) | Pilosebaceous structure size (% red′n) (Rhino mouse; 0.01% topical) | Pilosebaceous structure size (Rhino mouse; 0.01% topical) [μm] | Pilosebaceous structure size (% red′n) (Rhino mouse; 0.1% topical) | Pilosebaceous structure size (Rhino mouse; 0.1% topical) [μm] | increased cellular activities of tPA (F9 cells)
CC1=C(/C=C/C(C)=C\C=C\C(C)=C\C(=O)O)C(C)(C)CCC1 | (−64%) | 72 | (−74%) | 52 | 0.48±0.05
CC1=C(/C=C/C(C)=C/C=C/C(C)=C/C(=O)O)C(C)(C)CCC1 [reference compound] | – | 50 | – | – | –
